Laboratory results reported in publication PMC10992144, “Construction of fatty acid derivatives from rubber seed oil as α-glucosidase inhibitors based on rubber seed oil” (Bioresources and Bioprocessing, 2022).

Chains of the proteins cited; added tags and fusions are not shown. Lines headed by an entry give the natural chain unless they say otherwise; changes in a name come on top.
UniProt P53341: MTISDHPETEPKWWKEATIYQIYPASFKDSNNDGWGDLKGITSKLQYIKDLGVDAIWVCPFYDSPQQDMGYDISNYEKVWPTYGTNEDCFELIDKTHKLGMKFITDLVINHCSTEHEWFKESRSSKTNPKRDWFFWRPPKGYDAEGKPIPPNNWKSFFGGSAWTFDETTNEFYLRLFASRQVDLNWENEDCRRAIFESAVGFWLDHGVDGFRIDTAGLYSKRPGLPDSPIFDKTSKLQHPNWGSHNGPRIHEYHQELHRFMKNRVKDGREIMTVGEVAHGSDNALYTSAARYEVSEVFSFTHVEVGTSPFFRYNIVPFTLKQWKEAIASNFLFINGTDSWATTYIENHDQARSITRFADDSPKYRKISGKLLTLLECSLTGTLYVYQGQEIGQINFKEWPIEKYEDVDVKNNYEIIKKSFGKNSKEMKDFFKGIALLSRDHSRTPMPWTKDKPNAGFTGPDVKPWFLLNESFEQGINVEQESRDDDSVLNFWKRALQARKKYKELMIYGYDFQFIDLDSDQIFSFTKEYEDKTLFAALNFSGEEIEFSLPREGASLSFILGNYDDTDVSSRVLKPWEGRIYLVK

Biological target: T1, α-Glucosidase from recombinant yeast (Saccharomyces cerevisiae, UniProt P53341)
T1 construct: purchased Shanghai yuanye Bio-Technology Co. Ltd; host or cells: recombinant yeast
Experiment: biochemical
Conditions: 0.1 M phosphate buffer pH 6.9, 0.5% DMSO, 37 °C, α-PNPG; mean ± SD (n = 3)
Procedure: Fatty acids and their derivates were diluted in 0.1 M, pH = 6.9 phosphate buffer with 0.5% (v/v) DMSO as cosolvent, to prepare […] sample solutions. 50 μL sample solution and 100 μL 0.5 U α-glucosidase (prepared in the same phosphate buffer) were added into 1.5-mL plastic tubes, incubated at 37 °C, 10 min. Then, 50 μL 5 mM α-PNPG (prepared in the same buffer) was added into the plastic tube, incubated for another 10 min at 37 °C. At the end, 1 M Na2CO3 was added to terminate the reaction.
The Inhibitory score measures the inhibitory intensity of each sample on α-glucosidase, calculated by 1/IC50. Data were subjected to the one-way ANOVA analysis by SPSS 23.0, shown as mean ± SD (n = 3).

CCCCCCCC(=O)O [C8:0, Caprylic acid] gave an IC50 of 98 ± 4.07 µM.
